Assay results taken from ChEMBL document CHEMBL1133082, “Adenosine kinase inhibitors. 2. Synthesis, enzyme inhibition, and antiseizure activity of diaryltubercidin analogues” (J Med Chem, 2000).

Sequences of proteins named here, by UniProt entry; tags and fusion partners are left off. A change or cut given only in a name is not applied to a line headed by its entry.
UniProt P55263: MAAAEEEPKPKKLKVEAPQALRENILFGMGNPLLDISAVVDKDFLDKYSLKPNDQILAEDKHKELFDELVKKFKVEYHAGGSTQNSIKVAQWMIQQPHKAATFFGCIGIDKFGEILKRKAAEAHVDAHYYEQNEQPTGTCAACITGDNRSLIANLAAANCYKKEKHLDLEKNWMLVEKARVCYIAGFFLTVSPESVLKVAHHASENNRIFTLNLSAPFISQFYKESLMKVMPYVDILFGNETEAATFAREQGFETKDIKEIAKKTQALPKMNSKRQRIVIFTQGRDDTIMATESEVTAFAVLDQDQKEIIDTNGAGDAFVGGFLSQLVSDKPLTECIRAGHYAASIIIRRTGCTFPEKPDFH

Biological target: Adenosine kinase (Homo sapiens, UniProt P55263)
Experiment: Inhibition of recombinant human adenosine kinase

IC50: 1.5 nM
Structure (SMILES): C[C@H]1O[C@@H](n2cc(-c3ccccc3)c3c(Nc4ccc(F)cc4)ncnc32)[C@H](O)[C@@H]1O
